System: BT-474 breast xenograft
Experiment: BT-474 xenograft model, Example 88 alone and in combination with trastuzumab
Format: in vivo, athymic SCID mice
Details: for Median Tumor Size: Example 88 30 mg/kg i.p. b.i.d. 3 days on, 2 days off, 5 cycles, trastuzumab 10 mg/kg i.p. twice weekly 4 weeks
Source text: Mice-bearing sc tumors were randomized, and treatment groups consisted of 10 mice.

[1] = day 24, out of 10 mice, Table CC head: Example 88 10 mg/kg, Trastuzumab 10 mg/kg

Substance: Trastuzumab [reference compound]
- Median Tumor Size (day 4 of study): 133 mg
- Median Tumor Size (day 7 of study): 132 mg
- Median Tumor Size (day 10 of study): 124 mg
- Median Tumor Size (day 21 of study): 54 mg
- complete responders (CR) [1]: 0/10
- partial responders (PR) [1]: 0/10
- Median Tumor Size (day 24 of study): 36 mg
- Median Tumor Size (day 28 of study): 18 mg

Source: US8377983B2, “Benzazole derivatives, compositions, and methods of use as aurora kinase inhibitors” (TransTech Pharma, Inc., priority 2006, dated 2013)
